Source: article PMC6193938, “Characterization of a novel AICARFT inhibitor which potently elevates ZMP and has anti-tumor activity in murine models” (Scientific Reports, 2018)
pIC50: −log10 of the molar value.

Protein sequences, listed by entry. Tags and fused reporters are not part of them. Lines headed by an entry give the natural chain unless they say otherwise; changes in a name come on top.
UniProt P04818: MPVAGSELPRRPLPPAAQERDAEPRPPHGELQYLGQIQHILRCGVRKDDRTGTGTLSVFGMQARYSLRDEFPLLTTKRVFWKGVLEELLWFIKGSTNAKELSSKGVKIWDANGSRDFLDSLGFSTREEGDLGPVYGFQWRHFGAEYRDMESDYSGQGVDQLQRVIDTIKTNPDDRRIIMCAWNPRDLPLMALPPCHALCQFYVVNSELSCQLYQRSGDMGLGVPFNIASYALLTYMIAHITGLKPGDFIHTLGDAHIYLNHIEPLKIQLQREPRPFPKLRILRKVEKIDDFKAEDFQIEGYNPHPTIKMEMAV

Molecular target: T1, TS (Homo sapiens, UniProt P04818)
T1 construct: made in house; host or cells: E. coli BL21 (DE3)
Experiment: Folate dependent enzyme assay, TMP response (LC-MS)
Format: biochemical
Procedure: The human MTHFD2 (accession number: NM_006636.3) and MTHFD2L (accession number: NM_001144978.1) cDNAs were synthesized at GenScript. […] Bacterial BL21 (DE3) (Novagen) was used as an expression host, and protein purification is described in supplemental material.
Catalytic activity was assayed under the listed reaction conditions using a liquid chromatograph and either fluorescence or mass spectrometric detection as indicated. Reactions were carried out at RT for the reaction times given. The % response was fit to a four-parameter logistic equation using ACTIVITYBASE 4.0 to determine IC50 values.

## Nc1nc2[nH]cc(CCc3ccc(C(=O)N[C@@H](CCC(=O)O)C(=O)O)cc3)c2c(=O)[nH]1 [pemetrexed]
  pIC50: 6.24
